Laboratory results reported in publication PMC10145973, “Genomic Insights into Bacterial Resistance to Proline-Rich Antimicrobial Peptide Bac7” (Membranes, 2023).
Where a SMILES comes first, the peptide text is derived from it.

Tests used:
Settings in all cases: salt-containing MHB with ampicillin 100 µg/mL and L-arabinose 0.1 g/L
[1] = tested on: E. coli BW25113 ΔwaaP (pBAD-WaaP)
[2] = tested on: E. coli BW25113 ΔwaaP (pBAD-WaaP^N159H)
[3] = tested on: E. coli BW25113 ΔwaaP (pBAD-mScarlet)

Structure (SMILES): CC[C@H](C)[C@H](NC(=O)[C@H](CCCNC(=N)N)NC(=O)[C@@H](N)CCCNC(=N)N)C(=O)N[C@@H](CCCNC(=N)N)C(=O)N1CCC[C@H]1C(=O)N[C@@H](CCCNC(=N)N)C(=O)N1CCC[C@H]1C(=O)N1CCC[C@H]1C(=O)N[C@@H](CCCNC(=N)N)C(=O)N[C@@H](CC(C)C)C(=O)N1CCC[C@H]1C(=O)N[C@@H](CCCNC(=N)N)C(=O)N1CCC[C@H]1C(=O)N[C@@H](CCCNC(=N)N)C(=O)N1CCC[C@H]1C(=O)N[C@@H](CCCNC(=N)N)C(=O)N1CCC[C@H]1C(=O)N[C@@H](CC(C)C)C(=O)N1CCC[C@H]1C(=O)N[C@@H](Cc1ccccc1)C(=O)N1CCC[C@H]1C(=O)N[C@@H](CCCNC(=N)N)C(=O)O [Bac7_1-22] (H-RRIRPRPPRLPRPRPRPLPFPR-OH)
- MIC, MHB +0.9% NaCl [1]: 0.125 µM
- MIC, MHB +0.9% NaCl [2]: 0.5−1 μM
- MIC, MHB +0.9% NaCl [3]: 1 µM
